In patent US10526309B2, “Pan-TAM inhibitors and Mer/Axl dual inhibitors” (The University of North Carolina at Chapel Hill, priority 2015, dated 2020):

Columns and labels:
Assay type in all cases: biochemical
Conditions in all cases: Table 1
Tyro3 = target: T1, Tyro3 (Homo sapiens, UniProt Q06418); assay: Tyro3 kinase inhibition IC50
T1 sequence (Q06418 41-890): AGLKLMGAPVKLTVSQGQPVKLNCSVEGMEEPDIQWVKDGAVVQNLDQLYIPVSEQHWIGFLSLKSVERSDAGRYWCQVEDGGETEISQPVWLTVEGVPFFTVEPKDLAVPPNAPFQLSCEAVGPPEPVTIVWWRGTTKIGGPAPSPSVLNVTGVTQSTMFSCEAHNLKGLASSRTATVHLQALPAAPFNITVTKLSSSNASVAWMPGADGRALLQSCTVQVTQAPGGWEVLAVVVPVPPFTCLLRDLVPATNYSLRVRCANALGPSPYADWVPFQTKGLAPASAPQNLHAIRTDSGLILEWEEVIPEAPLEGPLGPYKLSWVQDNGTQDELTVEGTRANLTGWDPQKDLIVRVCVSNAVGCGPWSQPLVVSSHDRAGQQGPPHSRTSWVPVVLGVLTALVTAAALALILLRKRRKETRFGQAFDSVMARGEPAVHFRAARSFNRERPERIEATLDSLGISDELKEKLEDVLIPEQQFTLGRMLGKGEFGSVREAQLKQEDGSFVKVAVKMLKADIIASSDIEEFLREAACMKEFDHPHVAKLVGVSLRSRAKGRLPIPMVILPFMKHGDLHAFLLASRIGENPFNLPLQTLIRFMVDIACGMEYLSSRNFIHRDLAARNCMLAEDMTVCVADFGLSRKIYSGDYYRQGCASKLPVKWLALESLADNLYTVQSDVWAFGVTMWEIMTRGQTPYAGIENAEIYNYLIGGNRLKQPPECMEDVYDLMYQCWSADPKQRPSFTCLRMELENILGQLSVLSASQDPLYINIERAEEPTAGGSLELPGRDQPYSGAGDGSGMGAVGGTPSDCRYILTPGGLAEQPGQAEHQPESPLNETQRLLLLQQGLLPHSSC

Axl = target: T2, Axl (Homo sapiens, UniProt P30530); assay: Axl kinase inhibition IC50
T2 sequence (P30530 26-894): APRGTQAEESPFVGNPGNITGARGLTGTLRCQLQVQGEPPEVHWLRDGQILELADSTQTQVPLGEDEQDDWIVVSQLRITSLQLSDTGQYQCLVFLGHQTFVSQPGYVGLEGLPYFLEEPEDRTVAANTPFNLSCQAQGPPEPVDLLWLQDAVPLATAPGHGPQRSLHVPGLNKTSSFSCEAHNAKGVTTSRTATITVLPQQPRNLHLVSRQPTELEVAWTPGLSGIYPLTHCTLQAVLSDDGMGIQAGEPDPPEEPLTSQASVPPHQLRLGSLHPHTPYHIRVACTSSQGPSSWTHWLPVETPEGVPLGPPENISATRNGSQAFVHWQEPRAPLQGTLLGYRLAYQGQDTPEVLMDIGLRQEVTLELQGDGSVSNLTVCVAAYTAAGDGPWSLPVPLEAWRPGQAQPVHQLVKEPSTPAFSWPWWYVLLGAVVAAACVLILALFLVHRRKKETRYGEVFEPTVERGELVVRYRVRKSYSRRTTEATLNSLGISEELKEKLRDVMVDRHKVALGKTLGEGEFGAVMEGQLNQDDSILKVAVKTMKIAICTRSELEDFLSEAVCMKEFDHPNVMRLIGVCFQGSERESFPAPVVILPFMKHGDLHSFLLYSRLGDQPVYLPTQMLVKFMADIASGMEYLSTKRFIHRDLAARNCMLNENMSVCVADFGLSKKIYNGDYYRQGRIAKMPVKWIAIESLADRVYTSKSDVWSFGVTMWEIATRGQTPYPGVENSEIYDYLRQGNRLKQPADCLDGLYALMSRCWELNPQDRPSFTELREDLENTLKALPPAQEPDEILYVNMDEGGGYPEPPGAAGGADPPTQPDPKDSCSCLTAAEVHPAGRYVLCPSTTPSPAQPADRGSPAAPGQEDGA

Mer = target: T3, Mer (Homo sapiens, UniProt Q12866); assay: Mer kinase inhibition IC50
T3 sequence (Q12866 21-999): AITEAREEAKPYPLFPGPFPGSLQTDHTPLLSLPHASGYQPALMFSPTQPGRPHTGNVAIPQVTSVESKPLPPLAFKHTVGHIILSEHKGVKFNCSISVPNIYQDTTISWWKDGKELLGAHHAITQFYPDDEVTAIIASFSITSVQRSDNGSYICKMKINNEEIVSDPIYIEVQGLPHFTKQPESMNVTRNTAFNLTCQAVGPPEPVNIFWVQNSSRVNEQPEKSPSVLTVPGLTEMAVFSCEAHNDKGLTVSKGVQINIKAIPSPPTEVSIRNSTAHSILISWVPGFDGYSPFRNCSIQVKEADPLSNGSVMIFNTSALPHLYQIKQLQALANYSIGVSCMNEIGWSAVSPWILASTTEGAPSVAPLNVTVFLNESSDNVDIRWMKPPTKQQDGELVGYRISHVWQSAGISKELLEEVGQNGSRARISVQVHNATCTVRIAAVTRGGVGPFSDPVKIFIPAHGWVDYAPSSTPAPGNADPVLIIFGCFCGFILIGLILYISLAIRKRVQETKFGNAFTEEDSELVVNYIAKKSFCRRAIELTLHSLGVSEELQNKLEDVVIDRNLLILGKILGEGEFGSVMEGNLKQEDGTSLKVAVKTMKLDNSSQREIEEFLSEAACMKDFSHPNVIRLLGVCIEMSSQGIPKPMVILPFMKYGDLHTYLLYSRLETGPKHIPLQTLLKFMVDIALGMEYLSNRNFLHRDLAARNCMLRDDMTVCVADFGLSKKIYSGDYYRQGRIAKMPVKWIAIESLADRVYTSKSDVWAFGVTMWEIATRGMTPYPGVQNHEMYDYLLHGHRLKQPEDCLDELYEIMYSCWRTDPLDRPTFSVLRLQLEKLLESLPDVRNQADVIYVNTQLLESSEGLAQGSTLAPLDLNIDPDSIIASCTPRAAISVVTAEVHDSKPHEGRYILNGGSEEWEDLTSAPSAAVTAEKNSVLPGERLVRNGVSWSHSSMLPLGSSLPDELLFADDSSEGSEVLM

IC50 (Tyro3) | IC50 (Axl) | IC50 (Mer) | SMILES
10 to 100 nM | 100 to 1000 nM | – | O[C@H]1CC[C@H](Nc2nc(Nc3ccc4ccccc4c3)ncc2-c2ccccn2)CC1 [UNC3207A]
< 10 nM | < 10 nM | – | O[C@H]1CC[C@H](Nc2nc(Nc3ccc(Cl)cc3)ncc2-c2ccc(CN3CCCC3)cn2)CC1 [UNC4373A]
< 10 nM | 10 to 100 nM | – | O[C@H]1CC[C@H](Nc2nc(Nc3ccccc3F)ncc2-c2ccc(CN3CCCC3)cn2)CC1 [UNC4244A]
< 10 nM | 100 to 1000 nM | – | C#Cc1cccc(Nc2ncc(-c3ccccn3)c(N[C@H]3CC[C@H](O)CC3)n2)c1 [UNC3223A]
< 10 nM | < 10 nM | – | Cc1ccc(Nc2ncc(-c3ccc(CN4CCCC4)cn3)c(N[C@H]3CC[C@H](O)CC3)n2)cc1 [UNC4242A]
10 to 100 nM | 100 to 1000 nM | – | C=Cc1ccc(Nc2ncc(-c3ccccn3)c(N[C@H]3CC[C@H](O)CC3)n2)cc1 [UNC3204A, trans-4-((5-(Pyridin-2-yl)-2-((4-vinylphenyl)amino)pyrimidin-4-yl)amino)cyclohexan-1-ol]
< 10 nM | 100 to 1000 nM | – | COc1ccc(Nc2ncc(-c3ccc(CN4CCCC4)cn3)c(N[C@H]3CC[C@H](O)CC3)n2)cc1 [UNC4240A]
< 10 nM | < 10 nM | – | O[C@H]1CC[C@H](Nc2nc(Nc3cccc(F)c3)ncc2-c2ccc(CN3CCCC3)cn2)CC1 [UNC4247A]
< 10 nM | < 10 nM | – | O[C@H]1CC[C@H](Nc2nc(Nc3ccc(F)cc3)ncc2-c2ccc(CN3CCCC3)cn2)CC1 [UNC4241A]
1000 to 30000 nM | – | – | C#Cc1ccccc1Nc1ncc(-c2ccccn2)c(N[C@H]2CC[C@H](O)CC2)n1 [UNC3206A]
< 10 nM | < 10 nM | – | O[C@H]1CC[C@H](Nc2nc(Nc3ccc(Br)cc3)ncc2-c2ccc(CN3CCCC3)cn2)CC1 [UNC4377A]
< 10 nM | < 10 nM | < 10 nM | N#Cc1ccc(Nc2ncc(-c3ccc(CN4CCCC4)cn3)c(N[C@H]3CC[C@H](O)CC3)n2)cc1 [UNC4372A]
10 to 100 nM | – | – | O[C@H]1CC[C@H](Nc2nc(Nc3cccc4ccccc34)ncc2-c2ccccn2)CC1 [UNC3205A]
10 to 100 nM | – | – | O[C@H]1CC[C@H](Nc2nc(Nc3ccccn3)ncc2-c2ccccn2)CC1 [UNC3224A]
< 10 nM | 10 to 100 nM | – | O[C@H]1CC[C@H](Nc2nc(Nc3ccc(C(F)(F)F)cc3)ncc2-c2ccc(CN3CCCC3)cn2)CC1 [UNC4243A]
